The record followed here is patent US20130023496A1, “Combination Therapy Comprising A CCR5 Antagonist, A HIV-1 Protease Inhibtior and a Pharmacokinetic Enhancer” (priority 2010, published 2013).

The mark [1] stands for this setting: median, MVC 150 mg QD with ATV/r 300/100 mg QD, Week 2, plasma, 15 patients.

Regarding “N-{(1S)-3-[3-(3-isopropyl-5-methyl-4H-1,2,4-triazol-4-yl)-exo-8-azabicyclo[3.2.1]oct-8-yl]-1-phenylpropyl}-4, 4-difluorocyclohexanecarboxamide [maraviroc]”, the “targeted MVC Cavg achieved by all 15 subjects” value (MVC 150 mg QD with ATV/r, Week 2, all 15 subjects) is listed as at least 75 ng/mL. Under setting [1], this substance displayed an AUC24 of 4330 ng·h/mL, a Cavg of 180 ng/mL, a Cmax of 650 ng/mL and a Cmin of 37.0 ng/mL.

A word on the Cmax: it is the maximum level reached in the sampled fluid or tissue.
